Antibody variant affinities, Ab-14 heavy chain, assay 1

Data: MIT Lincoln Laboratory AlphaSeq set, Engelhart et al. 2022, doi:10.1038/s41597-022-01779-4, as distributed in FLAb.

All variants were tested on one target, the spike HR2 peptide PDVDLGDISGINAS (SARS-CoV-2).

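The starting antibody came from a phage panning campaign against this peptide. In library AAYL49, one, two or three CDR residues were substituted; doubles and triples were drawn at random. The assay is AlphaSeq: two haploid yeast populations carry antibody and antigen on their surface. The frequency of each diploid, read from paired DNA barcodes, reflects how well the two displayed proteins bind. Scores were corrected for input abundance and mapped to Kd with protein pairs of known affinity run in the same pool. There are three technical replicates.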

Ab-14 is the parent antibody, in scFv form: VH, then a 15-residue (Gly4Ser)3 linker, then VL. The light chain is unchanged in all variants.
VH: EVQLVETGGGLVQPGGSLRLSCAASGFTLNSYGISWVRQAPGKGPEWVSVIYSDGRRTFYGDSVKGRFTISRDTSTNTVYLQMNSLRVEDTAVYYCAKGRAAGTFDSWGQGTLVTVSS
VL: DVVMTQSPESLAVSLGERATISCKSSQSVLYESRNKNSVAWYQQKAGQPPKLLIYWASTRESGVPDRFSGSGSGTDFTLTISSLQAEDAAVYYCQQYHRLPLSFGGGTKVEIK

Substitutions are numbered in sequence along the VH above, starting at 1 (not Kabat).
These are single substitutions, in order of position.
Values are apparent Kd, the geometric mean of the replicates that gave a signal; lower means stronger binding.
Where no diploid with the target was found in any replicate, the entry reads "no signal": below detection, most likely a poor binder, though not proof of it.
For reference, the parent read 4.4 nM as the reference entry and 13 µM (one replicate of three) as a member of this library.

changes	Kd	seen in
T104P	15 µM	1/3
T104R	no signal	0/3
T104N	100 nM	3/3
T104F	23 µM	1/3
T104M	4.5 nM	3/3
T104A	no signal	0/3
T104D	no signal	0/3
T104I	37 nM	3/3
T104G	30 µM	2/3
F105E	14 µM	3/3
F105T	620 nM	3/3
F105K	3.6 µM	3/3
F105M	no signal	0/3
F105P	no signal	0/3
F105C	4.5 µM	1/3
F105W	63 nM	3/3
F105G	6.9 nM	3/3
F105H	100 nM	3/3
F105I	no signal	0/3
F105V	77 nM	3/3
F105L	66 nM	3/3
F105N	61 nM	3/3
F105Q	11 µM	1/3
F105D	no signal	0/3
F105S	210 µM	1/3
F105R	110 nM	3/3
F105A	150 nM	3/3
F105Y	13 nM	3/3
D106N	100 nM	3/3
D106R	1.1 µM	2/3
D106Y	5.1 nM	3/3
D106C	2.9 µM	1/3
D106V	33 nM	3/3
D106I	18 nM	3/3
D106H	3.3 nM	3/3
D106W	6.1 nM	3/3
D106L	430 µM	1/3
D106P	19 nM	3/3
D106A	120 nM	3/3
D106S	77 nM	3/3
D106T	19 nM	3/3
D106E	6.9 nM	2/3
D106G	7.9 nM	3/3
D106K	11 nM	3/3
S107E	no signal	0/3
S107R	48 nM	3/3
S107D	4.9 µM	2/3
S107V	130 nM	3/3
S107P	no signal	0/3
S107C	180 nM	3/3
S107G	180 nM	3/3
S107H	35 nM	3/3
S107W	120 nM	3/3
S107K	28 nM	3/3
S107Q	9.5 nM	3/3
S107A	9.8 nM	3/3
S107N	52 nM	3/3
S107Y	no signal	0/3
S107F	44 µM	1/3

9 of these entries, quoted again:

| changes | Kd | seen in |
|---|---|---|
| F105W | 63 nM | 3/3 |
| D106P | 19 nM | 3/3 |
| D106N | 100 nM | 3/3 |
| D106E | 6.9 nM | 2/3 |
| S107R | 48 nM | 3/3 |
| F105N | 61 nM | 3/3 |
| D106H | 3.3 nM | 3/3 |
| T104N | 100 nM | 3/3 |
| F105D | no signal | 0/3 |

Empty control strains, which show no peptide, gave a signal in 15% of pairings with library AAYL49; the median was 11 µM and 95% of these signals were weaker than 680 nM. No background was subtracted.